Measured values reported in patent publication US20150361503A1, “METHODS FOR SELECTING THERAPEUTICS FOR TREATMENT OF HER2+ CANCERS” (Merrimack Pharmaceuticals, Inc., priority 2014, published 2015).

Test system: HER2+ cell lines
Test: In vitro cell growth assays: drug combination effects (CellTiter-Glo cell viability)
Type: cell-based
Conditions: presence of 5 nM exogenous HRG, regardless of genetic background
Method: Combination effects between MM-111, trastuzumab, lapatinib, MK-2206 and trametinib are evaluated by CTG cell viability assays. Cells (BT474-M3, NCI-N87, NCI-N87-PIK3CA(wt), NCI-N87-PIK3CA(H1047R), NCI-N87-PIK3CA(E454K), COLO-678, KYSE-410, ZR75-1, MDA-MB-361 or MDA-MB-175-VII) are seeded at 700 cells per 384-well plate in 10% FBS cell growth medium and treated with the five drugs, separately or in combination, at […], with and without 5 nM HRG-β1 pre-stimulation (for four hours). Cell viability was determined 72 hours later with CellTiter-Glo® luminescent cell viability assay (Promega).
Cell growth inhibition (CGI) as measured by CellTiter Glow® (CTG) assay over the 96-hour in vitro culture [CTGCTRL−CTGTREAT)/CTGCTRL] was described using a multivariate linear regression function of the Log10 drug concentrations (Ci):
Where N=number of input drugs (5: MM-111, lapatinib, trastuzumab, MK-2206, and GSK-1120212), and βi=regression coefficients, estimated by maximum likelihood estimation.
To assess the foregoing computational predictions experimentally, in vitro proliferative responses to MM-111, trastuzumab, and lapatinib combination treatments (MTL) were tested in eight HER2+ cell lines, as well as AKT and MEK inhibitor combinations, in the presence and absence of 5 nM exogenous HRG. […]

trastuzumab
effect of HRG on sensitivity of cells to the drug (cell growth inhibition): desensitizes
